Experimental findings from patent publication US8101373B2, “β-galactosidase donor fragments” (Discoverx Corporation, priority 2007, dated 2012) are described below.

Sequences of proteins named here, by UniProt entry; tags and fusion partners are left off.
UniProt P41968, whole entry, species assumed: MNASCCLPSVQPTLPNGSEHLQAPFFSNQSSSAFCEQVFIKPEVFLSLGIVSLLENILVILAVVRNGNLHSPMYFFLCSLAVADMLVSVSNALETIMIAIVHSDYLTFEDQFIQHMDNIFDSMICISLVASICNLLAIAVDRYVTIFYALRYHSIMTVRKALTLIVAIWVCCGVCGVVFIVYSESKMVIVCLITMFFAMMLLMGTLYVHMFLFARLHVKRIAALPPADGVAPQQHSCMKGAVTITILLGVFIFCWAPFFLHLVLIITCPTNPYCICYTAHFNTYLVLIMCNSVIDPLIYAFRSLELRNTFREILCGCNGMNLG

The assay has as its target T1, MC3R (Homo sapiens, UniProt P41968).
T1 construct: The entire GPCR coding regions were cloned downstream of the CMV promoter and upstream of the ED; expressed in transfected cells; host or cells: HEK293 or CHOK1 cells, retroviral infection (pLNCX2)
The assay can be described thus: PathHunter β-arrestin2-EA / GPCR-ED enzyme fragment complementation, MC3R-ED fusion. The conditions noted are these: saturating ligand. Format: cell-based. The text has this:
The following are the directions for performing the determinations of the response to inducing agents and comparing the prior art ED (pK1) to an ED of the subject invention (pK2):
The cells used were HEK293 and CHOK1 cells. Following substantially the procedures described in U.S. patent application Ser. No. 10/229,247, filed Aug. 27, 2002, and U.S. patent application Ser. No. 11/132,764 (Publication no. 2005/0287522), filed May 18, 2005, whose disclosures are specifically incorporated by reference, each of the cell lines was infected with retroviral constructs. The viral plasmid was the PLNCX2 vector from Clontech. The plasmid includes sufficient retroviral sequences to enable viral production in the appropriate packaging cell lines. The plasmid also includes the neomycin antibiotic resistance gene and a CMV promoter that is used to drive expression of the target ED fusion. […] The ED is fused at the intracellular terminus, i.e., C-terminus of the proteins.
Preparation of Detection Reagents—The detection reagents must be prepared as a working solution prior to use, and once prepared are stable for at least 24 hours at room temperature with no impact on assay performance. The detection reagents consist of the substrate and co-factors for chemiluminescence signal detection, as well as the reagents necessary for selective cell permeabilization. […]

With aMSH, the Fold induct. result by setting is: (MC3R fused to PK1 ED) “none”; (MC3R fused to PK2 ED) 3.2 fold.
